The values below come from patent US10053431B2, “Tetrahydro-benzodiazepinones” (priority 2013, dated 2018).

Chains of the proteins cited; added tags and fusions are not shown. A line that says so, or that is headed by a name, gives the form on record, which may keep a tag or linker. Residues count along the entry.
UniProt P98170, 241-356 with tags or gaps limits assumed: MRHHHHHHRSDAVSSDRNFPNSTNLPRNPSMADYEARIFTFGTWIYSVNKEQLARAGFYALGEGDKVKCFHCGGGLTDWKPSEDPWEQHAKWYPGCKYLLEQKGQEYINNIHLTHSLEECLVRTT
UniProt P98170, 124-240 with tags or gaps C202A/C213G limits assumed: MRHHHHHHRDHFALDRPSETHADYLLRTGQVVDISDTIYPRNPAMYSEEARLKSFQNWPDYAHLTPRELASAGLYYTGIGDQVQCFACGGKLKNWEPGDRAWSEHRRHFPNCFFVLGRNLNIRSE

In one test the target is BIR3 domain of XIAP (Homo sapiens (Human), UniProt P98170). The experiment in a line: TR-FRET assay for BIR3 (inhibition of binding of XIAP BIR3 domain to SMAC-derived Peptide A). The settings on record: read-out: IC50 BIR3.
A further test addresses BIR2 domain of XIAP (Homo sapiens (Human), UniProt P98170, C202A/C213G). The experiment in a line: TR-FRET assay for BIR2 (inhibition of binding of XIAP BIR2 domain to SMAC-derived Peptide A). To be noted: 6x His-tagged BIR2 domain (aa 124-240 of XIAP) 10 nM, Peptide A 20 nM.
Where [1] appears, read: 6x His-tagged BIR3 domain (aa 241-356 of XIAP) 10 nM, Peptide A 20 nM, TR-FRET.

Structures can show the parent of a compound that is named as a salt. Where two headings read alike, the source gives them in different places.

On to `CN[C@@H](C)C(=O)N[C@H]1CN(C(=O)c2ccc([N+](=O)[O-])cc2)c2ccccc2N(Cc2c(C)ccc3ccccc23)C1=O` [Example 66, (2S)-2-(methylamino)-N-[(3S)-5-[(2-methyl-1-naphthyl)methyl]-1-(4-nitrobenzoyl)-4-oxo-2,3-dihydro-1,5-benzodiazepin-3-yl]propanamide hydrochloride], for which the concentration for half-maximal inhibition (IC50) on BIR3 domain of XIAP was found to be 48300 nM; at BIR2 domain of XIAP, 38 nM.

Regarding `CN[C@@H](C)C(=O)N[C@H]1CN(C(=O)CS(C)(=O)=O)c2ccc(C#N)cc2N(Cc2nn(-c3ccccc3C#N)c3ccccc23)C1=O` [Example 167, (S)-N-((S)-8-cyano-1-((1-(2-cyanophenyl)-1H-indazol-3-yl)methyl)-5-(2-(methylsulfonyl)acetyl)-2-oxo-2,3,4,5-tetrahydro-1H-benzo[b][1,4]diazepin-3-yl)-2-(methylamino)propanamide hydrochloride], the IC50 on BIR3 domain of XIAP (setting [1]) was above 54800 nM; on BIR2 domain of XIAP it was 99.5 nM.

For `CN[C@@H](C)C(=O)N[C@H]1CN(C(=O)c2ccc(N)cc2)c2ccccc2N(Cc2c(OC)ccc3cc(C(=O)OC)ccc23)C1=O` [Example 56, 5-[(S)-5-(4-Amino-benzoyl)-3-((S)-2-methylamino-propionylamino)-2-oxo-2,3,4,5-tetrahydro-benzo[b][1,4]diazepin-1-ylmethyl]-6-methoxy-naphthalene-2-carboxylic acid methyl ester hydrochloride], the results for the IC50 at BIR3 domain of XIAP and on BIR2 domain of XIAP were 38100 nM and 10 nM, respectively.

In the case of `CN[C@@H](C)C(=O)NC1C(=O)N(Cc2c(OC)ccc3ccccc23)c2ccccc2N(CC23CC4CC(CC(C4)C2)C3)C1=O` (stereo partly drawn) [Example 110, (2S)-N-[5-(1-adamantylmethyl)-1-[(2-methoxynaphthalen-1-yl)methyl]-2,4-dioxo-1,5-benzodiazepin-3-yl]-2-(methylamino)propanamide], the IC50 on BIR3 domain of XIAP (setting [1]) was above 54800 nM; at BIR2 domain of XIAP it was 278 nM.

As for `CN[C@@H](C)C(=O)N[C@H]1CN(C(=O)c2ccc3cc[nH]c3c2)c2ccccc2N(Cc2c(C)ccc3ccccc23)C1=O` [Example 152, (2S)-N-[(3S)-1-(1H-indole-6-carbonyl)-5-[(2-methylnaphthalen-1-yl)methyl]-4-oxo-2,3-dihydro-1,5-benzodiazepin-3-yl]-2-(methylamino)propanamide], the IC50 was 51700 nM at BIR3 domain of XIAP (setting [1]) and 32.6 nM at BIR2 domain of XIAP.

Consider `CN[C@@H](C)C(=O)N[C@H]1CN(C(=O)c2ccc(F)cc2)c2cc(Cl)ccc2N(Cc2c(OC(F)F)ccc3ccccc23)C1=O` [Example 140, (S)-N-((S)-7-chloro-1-((2-(difluoromethoxy)naphthalen-1-yl)methyl)-5-(4-fluorobenzoyl)-2-oxo-2,3,4,5-tetrahydro-1H-benzo[b][1,4]diazepin-3-yl)-2-(methylamino)propanamide hydrochloride], for which the IC50 is 48800 nM at BIR3 domain of XIAP (setting [1]) and 49.7 nM at BIR2 domain of XIAP.

In the case of `CN[C@@H](C)C(=O)N[C@H]1CN(C(=O)CS(C)(=O)=O)c2cc(C#N)ccc2N(Cc2nn(C)c3ccccc23)C1=O` [Example 164, (S)-N-((S)-7-cyano-1-((1-methyl-1H-indazol-3-yl)methyl)-5-(2-(methylsulfonyl)acetyl)-2-oxo-2,3,4,5-tetrahydro-1H-benzo[b][1,4]diazepin-3-yl)-2-(methylamino)propanamide hydrochloride], the IC50 was above 54800 nM on BIR3 domain of XIAP (setting [1]) and 103 nM on BIR2 domain of XIAP.

Consider `CN[C@@H](C)C(=O)N[C@H]1CN(C(=O)CCCN)c2ccccc2N(Cc2c(OC)ccc3cc(C(=O)O)ccc23)C1=O` [Example 50, 5-(((S)-5-(4-aminobutanoyl)-3-((S)-2-(methylamino)propanamido)-2-oxo-2,3,4,5-tetrahydro-1H-benzo[b][1,4]diazepin-1-yl)methyl)-6-methoxy-2-naphthoic acid hydrochloride], for which the IC50 on BIR3 domain of XIAP stood at 18500 nM; at BIR2 domain of XIAP, 13 nM.

Consider `CN[C@@H](C)C(=O)N[C@H]1CN(C(=O)CCCC(=O)O)c2ccccc2N(Cc2c(C)ccc3ccccc23)C1=O` [Example 15, 5-[(S)-3-((S)-2-Methylamino-propionylamino)-5-(2-methyl-naphthalen-1-ylmethyl)-4-oxo-2,3,4,5-tetrahydro-benzo[b][1,4]diazepin-1-yl]-5-oxo-pentanoic acid hydrochloride], for which the IC50 on BIR3 domain of XIAP is above 54800 nM; on BIR2 domain of XIAP, 76 nM.

Take `CN[C@@H](C)C(=O)N[C@H]1CN(C(=O)c2ccccc2C#N)c2ccccc2N(Cc2c(OC)ccc3cc(Br)ccc23)C1=O` [Example 90f]: the values for the IC50 at BIR3 domain of XIAP (setting [1]) and at BIR2 domain of XIAP were above 54800 nM and 20 nM, respectively.

For the molecule `CN[C@@H](C)C(=O)N[C@H]1CN(C(=O)c2ccc(C(=O)OC)cc2)c2ccccc2N(Cc2noc3ccccc23)C1=O` [Example 72, Methyl 4-((S)-5-(benzo[d]isoxazol-3-ylmethyl)-3-((S)-2-(methylamino)propanamido)-4-oxo-2,3,4,5-tetrahydro-1H-benzo[b][1,4]diazepine-1-carbonyl)benzoate hydrochloride], the IC50 is above 54800 nM on BIR3 domain of XIAP and 44 nM on BIR2 domain of XIAP.

With `CN[C@@H](C)C(=O)N[C@H]1CN(C(C)=O)c2ccccc2N(Cc2c(C)ccc3ccccc23)C1=O` [Example 14, (S)—N—[(S)-5-acetyl-1-(2-methyl-naphthalen-1-ylmethyl)-2-oxo-2,3,4,5-tetrahydro-1H-benzo[b][1,4]diazepin-3-yl]-2-methylamino-propionamide hydrochloride], the IC50 on BIR3 domain of XIAP is above 54800 nM; on BIR2 domain of XIAP it was 244 nM.

`CN[C@@H](C)C(=O)N[C@H]1CN(C(=O)c2ccc(C(C)=O)cc2)c2ccccc2N(Cc2c(OC)ccc3c(Br)cccc23)C1=O` [Example 69f]: the figures for the IC50 at BIR3 domain of XIAP (setting [1]) and at BIR2 domain of XIAP were 30600 nM and 7 nM, respectively.

Turning to `CN[C@@H](C)C(=O)N[C@H]1CN(C(=O)c2ccc(C#N)cc2)c2cc(C#N)ccc2N(Cc2c(OC)ccc3cc(Br)ccc23)C1=O` [Example 144, (S)-N-((S)-1-((6-bromo-2-methoxynaphthalen-1-yl)methyl)-7-cyano-5-(4-cyanobenzoyl)-2-oxo-2,3,4,5-tetrahydro-1H-benzo[b][1,4]diazepin-3-yl)-2-(methylamino)propanamide hydrochloride], the results for the 50% inhibitory concentration (IC50) at BIR3 domain of XIAP (setting [1]) and at BIR2 domain of XIAP were 23800 nM and 6.15 nM, respectively.

On to `CN[C@@H](C)C(=O)N[C@H]1CN(C(=O)c2cccc3[nH]ncc23)c2ccccc2N(Cc2c(C)ccc3ccccc23)C1=O` [Example 147, (2S)-N-[(3S)-1-(1H-indazole-4-carbonyl)-5-[(2-methylnaphthalen-1-yl)methyl]-4-oxo-2,3-dihydro-1,5-benzodiazepin-3-yl]-2-(methylamino)propanamide], for which the results for the IC50 at BIR3 domain of XIAP (setting [1]) and on BIR2 domain of XIAP were above 54800 nM and 55.1 nM, respectively.

As to `CN[C@@H](C)C(=O)N(C)[C@H]1CN(C(=O)c2ccc([N+](=O)[O-])cc2)c2ccccc2N(Cc2c(OC)ccc3cc(Br)ccc23)C1=O` [Example 107, (S)-N-((S)-1-((6-bromo-2-methoxynaphthalen-1-yl)methyl)-5-(4-nitrobenzoyl)-2-oxo-2,3,4,5-tetrahydro-1H-benzo[b][1,4]diazepin-3-yl)-N-methyl-2-(methylamino)propanamide hydrochloride], the IC50 on BIR3 domain of XIAP (setting [1]) was above 54800 nM; at BIR2 domain of XIAP, 146 nM.

For `CN[C@@H](C)C(=O)N[C@H]1CN(C(=O)c2ccc(N)cc2)c2cc(Cl)ccc2N(Cc2c(OC)ccc3cc(Br)ccc23)C1=O` [Example 124, (S)-N-((S)-5-(4-aminobenzoyl)-1-((6-bromo-2-methoxynaphthalen-1-yl)methyl)-7-chloro-2-oxo-2,3,4,5-tetrahydro-1H-benzo[b][1,4]diazepin-3-yl)-2-(methylamino)propanamide hydrochloride], the IC50 at BIR3 domain of XIAP (setting [1]) is 13100 nM; at BIR2 domain of XIAP, 5.68 nM.

Turning to `CN[C@@H](C)C(=O)N[C@H]1CN(S(=O)(=O)c2ccc(C(C)=O)cc2)c2ccccc2N(Cc2c(C)ccc3ccccc23)C1=O` [Example 98c], the IC50 at BIR3 domain of XIAP (setting [1]) is 29800 nM; on BIR2 domain of XIAP, 204 nM.

Consider `CN[C@@H](C)C(=O)N[C@H]1CN(C(=O)CC2CCOCC2)c2ccccc2N(Cc2c(OC)ccc3cc(Br)ccc23)C1=O` [Example 86, (S)—N—((S)-1-((6-bromo-2-methoxynaphthalen-1-yl)methyl)-2-oxo-5-(2-(tetrahydro-2H-pyran-4-yl)acetyl)-2,3,4,5-tetrahydro-1H-benzo[b][1,4]diazepin-3-yl)-2-(methylamino)propanamide hydrochloride], for which the values for the IC50 at BIR3 domain of XIAP and at BIR2 domain of XIAP were 49600 nM and 13 nM, respectively.

With `CN[C@@H](C)C(=O)N[C@H]1CN(S(=O)(=O)c2ccc(N)cc2)c2ccccc2N(Cc2c(C)ccc3ccccc23)C1=O` [Example 117, (25)-N-[(35)-1-(4-aminophenyl)sulfonyl-5-[(2-methylnaphthalen-1-yl)methyl]-4-oxo-2,3-dihydro-1,5-benzodiazepin-3-yl]-2-(methylamino)propanamide;hydrochloride], the figures for the IC50 on BIR3 domain of XIAP (setting [1]) and on BIR2 domain of XIAP were above 54800 nM and 168 nM, respectively.

For `CN[C@@H](C)C(=O)N[C@H]1CN(C(=O)c2ccncc2)c2cc(C#N)ccc2N(Cc2c(C3CC3)cnc3ccccc23)C1=O` [Example 181], the IC50 was 16300 nM at BIR3 domain of XIAP (setting [1]) and 16.9 nM at BIR2 domain of XIAP.

As for `CN[C@@H](C)C(=O)N[C@H]1CN(C(=O)c2ccncc2)c2cc(C(F)(F)F)ccc2N(Cc2c(C3CC3)cnc3ccccc23)C1=O` [Example 186, (S)-N-((S)-1-((3-cyclopropylquinolin-4-yl)methyl)-5-isonicolinoyl-2-oxo-7-(trifluoromethyl)-2,3,4,5-tetrahydro-1H-benzo[b][1,4]diazepin-3-yl)-2-(methylamino)propanamide], the results for the IC50 on BIR3 domain of XIAP (setting [1]) and on BIR2 domain of XIAP were 25900 nM and 25.6 nM, respectively.

With `CN[C@@H](C)C(=O)N[C@H]1CN(C(=O)c2cnn(C)c2)c2ccccc2N(Cc2c(OC)ccc3cc(Br)ccc23)C1=O` [Example 89e], the values for the 50% inhibitory concentration (IC50) at BIR3 domain of XIAP (setting [1]) and on BIR2 domain of XIAP were 32500 nM and 11 nM, respectively.

Turning to `CN[C@@H](C)C(=O)N[C@H]1CN(C(=O)c2ccno2)c2ccccc2N(Cc2c(OC)ccc3cc(Br)ccc23)C1=O` [Example 75c], the IC50 on BIR3 domain of XIAP (setting [1]) worked out at 30400 nM; on BIR2 domain of XIAP it was 5 nM.
